Molecular target: CYP2C9 (Homo sapiens, UniProt P11712)
Test: CYP2C9 diclofenac 4′-hydroxylation assay in human liver microsomes
Settings: HLM; positive control at 0.3 μM; vs negative solvent control

By UniProt entry, the sequences of proteins in these tests, tags left out.
UniProt P11712, whole entry: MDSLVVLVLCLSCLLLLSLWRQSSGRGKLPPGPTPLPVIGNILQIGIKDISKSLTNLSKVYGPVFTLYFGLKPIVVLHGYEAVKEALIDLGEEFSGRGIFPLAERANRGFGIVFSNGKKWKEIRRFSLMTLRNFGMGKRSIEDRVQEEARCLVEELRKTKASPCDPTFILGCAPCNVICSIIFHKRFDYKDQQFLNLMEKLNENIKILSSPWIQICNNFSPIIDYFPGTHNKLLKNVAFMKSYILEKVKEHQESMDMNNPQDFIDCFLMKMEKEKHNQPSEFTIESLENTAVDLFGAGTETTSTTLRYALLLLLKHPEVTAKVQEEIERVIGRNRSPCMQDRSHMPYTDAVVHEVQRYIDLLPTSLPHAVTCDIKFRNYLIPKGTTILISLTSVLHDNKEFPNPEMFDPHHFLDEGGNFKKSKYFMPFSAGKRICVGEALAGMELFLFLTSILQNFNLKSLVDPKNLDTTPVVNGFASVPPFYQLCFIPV

inhibition of CYP2C9 enzyme activity: 50%
Substance: Sulphaphenazole [reference compound]
